Values quoted from earlier work as cited in PMC3867503, “Structure-Activity Relationships of Benzbromarone Metabolites and Derivatives as EYA Inhibitory Anti-Angiogenic Agents” (PLoS ONE, 2013).

Target: T1, recombinant human EYA3 (Homo sapiens, UniProt Q99504)
T1 construct: a splice variant of Q99504 corresponding to isoform 2 and missing residues 1 - 126; made in house
T1 sequence (Q99504 1-447 isoform Q99504-2): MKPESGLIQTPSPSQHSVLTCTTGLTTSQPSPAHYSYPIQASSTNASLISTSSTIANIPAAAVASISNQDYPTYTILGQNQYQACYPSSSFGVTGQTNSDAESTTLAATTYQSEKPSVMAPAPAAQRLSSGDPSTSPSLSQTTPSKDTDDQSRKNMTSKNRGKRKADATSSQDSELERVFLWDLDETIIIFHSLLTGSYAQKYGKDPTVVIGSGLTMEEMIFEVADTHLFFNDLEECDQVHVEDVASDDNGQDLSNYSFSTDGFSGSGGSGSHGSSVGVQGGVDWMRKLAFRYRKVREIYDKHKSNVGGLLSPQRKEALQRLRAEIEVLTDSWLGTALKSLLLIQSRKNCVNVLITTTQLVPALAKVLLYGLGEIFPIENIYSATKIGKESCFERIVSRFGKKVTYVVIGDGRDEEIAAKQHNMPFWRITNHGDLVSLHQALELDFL
Design: method as in PMID 22545090
Settings: recombinant EYA3, substrate pNPP; reported previously; read-out: IC50 (95% confidence intervals), pNPP hydrolysis by EYA3; cited from earlier work

In the case of CCCCc1oc2ccccc2c1C(=O)c1ccc(O)cc1 [Compound 1b], the IC50 is given as 9.7 µM.
